Measured values reported in PubChem BioAssay AID438 (Columbia University Molecular Screening Center, 2006).
Only a part is listed here, and it is no random draw. Calls of active or inactive are those of the source.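 Rule for the calls: active = inhibition above 20% together with a positive visual image hit; inconclusive = visual image hit but inhibition not above 20%; inactive = no visual image hit.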

Experiment: inhibitors of TNFa-induced NFkB p65 translocation, primary screen, imaging, HUVEC, MLSMR starter and 10KST1 sets (AID 438);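 note: compound added about 3h40 before a 20 min TNFalpha stimulation; signal is the nuclear over cytoplasmic p65 intensity ratio per well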
Conditions: HUVEC TNFa-induced p65 nuclear translocation, at 2 µM, active compounds read high, 0% TNFa-plus-vehicle, 100% no-TNFa wells

| Compound | inhibition |
| --- | --- |
| Cc1nn(-c2ccccc2)c2c1P(=O)(N1CCOCC1)N(C)C(c1ccccc1)=N2 (configuration not stated) | inactive: 0.5% |
| Cc1ccc(OCC(=O)OC2CN3CCC2CC3)cc1 (configuration not stated) | inactive: -3.8% |
| Cc1cccc(OCC(=O)OC2CN3CCC2CC3)c1 (configuration not stated) | inactive: -1% |
| CCOP1(=S)c2c(C)nn(CCC#N)c2N=C(c2ccccc2F)N1C (configuration not stated) | inactive: -2.4% |
| O=C(COc1ccccc1)OC1CN2CCC1CC2 (configuration not stated) | inactive: -0.6% |
| COP1(=S)c2c(C)nn(CCC#N)c2N=C(c2ccc(F)cc2)N1C (configuration not stated) | inactive: -3.4% |
| O=P(Nc1nccs1)(c1ccccc1)c1ccccc1 | inactive: 3.9% |
